{"sequences": {"note": "Sequences of proteins named here, by UniProt entry; tags and fusion partners are left off. A change or cut given only in a name is not applied to a line headed by its entry. Residues count along the entry.", "UniProt O15151, whole entry": "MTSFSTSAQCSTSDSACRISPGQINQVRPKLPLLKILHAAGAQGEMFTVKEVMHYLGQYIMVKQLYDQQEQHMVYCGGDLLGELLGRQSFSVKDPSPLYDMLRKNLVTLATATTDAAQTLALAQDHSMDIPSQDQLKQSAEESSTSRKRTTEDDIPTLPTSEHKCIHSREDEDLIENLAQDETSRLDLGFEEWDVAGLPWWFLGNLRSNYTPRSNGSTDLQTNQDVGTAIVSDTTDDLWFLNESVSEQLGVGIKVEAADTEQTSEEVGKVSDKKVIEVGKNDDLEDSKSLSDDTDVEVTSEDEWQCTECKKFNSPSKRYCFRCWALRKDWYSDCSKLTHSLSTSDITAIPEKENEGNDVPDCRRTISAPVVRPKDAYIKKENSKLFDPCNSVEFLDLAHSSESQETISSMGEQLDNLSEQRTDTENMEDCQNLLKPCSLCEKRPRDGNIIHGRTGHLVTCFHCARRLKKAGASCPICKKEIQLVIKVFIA", "UniProt Q00987, whole entry": "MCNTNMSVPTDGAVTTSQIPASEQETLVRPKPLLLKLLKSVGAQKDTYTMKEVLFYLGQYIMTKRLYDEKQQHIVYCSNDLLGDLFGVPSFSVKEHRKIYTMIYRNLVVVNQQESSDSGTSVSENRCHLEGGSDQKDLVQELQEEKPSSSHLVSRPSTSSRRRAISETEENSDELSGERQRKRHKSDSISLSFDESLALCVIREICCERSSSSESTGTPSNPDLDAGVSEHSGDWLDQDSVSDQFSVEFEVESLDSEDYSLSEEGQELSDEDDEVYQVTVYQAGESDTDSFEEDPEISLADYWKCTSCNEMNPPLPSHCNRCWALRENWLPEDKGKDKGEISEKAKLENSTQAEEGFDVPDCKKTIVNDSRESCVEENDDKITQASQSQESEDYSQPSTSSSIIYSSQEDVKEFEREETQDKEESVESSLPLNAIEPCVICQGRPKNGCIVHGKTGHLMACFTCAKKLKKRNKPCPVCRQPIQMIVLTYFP", "UniProt Q00987, 18-125 C77V limits assumed": "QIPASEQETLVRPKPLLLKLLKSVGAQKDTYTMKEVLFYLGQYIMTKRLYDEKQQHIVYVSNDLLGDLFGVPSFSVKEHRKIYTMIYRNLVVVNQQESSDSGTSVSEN"}, "source": "paper PMC3366986", "about": "“On the Mechanism of Action of SJ-172550 in Inhibiting the Interaction of MDM4 and p53” (PLoS ONE, 2012)", "key": {"[1]": {"molecular_target": "MDMX (Homo sapiens, UniProt O15151)", "assay": "fluorescence polarization p53 peptide exclusion assay, Mdmx", "details": "read-out: MdmX Ki; ND = compound does not noticeably block interaction with p53 peptide"}, "[2]": {"molecular_target": "Mdm2 (Homo sapiens, UniProt Q00987)", "assay": "fluorescence polarization p53 peptide exclusion assay, Mdm2", "details": "read-out: Mdm2 Ki; ND = compound does not noticeably block interaction with p53 peptide"}, "[3]": {"molecular_target": "hMDM2(18–125)C77V (Homo sapiens, UniProt Q00987, C77V)", "assay": "inhibition of p53 peptide binding to MDM2 cysteine mutant", "details": "C77A mutant of MDM2; Figure S12"}}}
{"smiles": "CCOC(=O)COc1c(Cl)cc(C=C2C(=O)N(c3cc(Cl)ccc3Cl)N=C2C)cc1OC", "values": [{"measurement": "Ki", "setting": "[1]", "result": 7.24, "unit": "µM"}]}
{"smiles": "CCOc1cc(C=C2C(=O)N(c3ccccc3)N=C2C)ccc1OCC(=O)OC", "values": [{"measurement": "Ki", "setting": "[2]", "result": 41.6, "unit": "µM"}, {"measurement": "Ki", "setting": "[1]", "result": 47.1, "unit": "µM"}]}
{"smiles": "CCOc1cc(C=C2C(=O)N(c3ccccc3)N=C2C)cc(Cl)c1OCC", "values": [{"measurement": "Ki", "setting": "[2]", "result": 30, "unit": "µM"}, {"measurement": "Ki", "setting": "[1]", "result": 6.66, "unit": "µM"}]}
{"smiles": "CCOc1cc(C=C2C(=O)N(c3cccc(C(F)(F)F)c3)N=C2C)cc(Cl)c1OCC", "values": [{"measurement": "Ki", "setting": "[1]", "result": 1.6, "unit": "µM"}]}
{"smiles": "CCOc1cc(C=C2C(=O)N(c3ccccc3)N=C2C)cc(Cl)c1OC(=O)c1cccs1", "values": [{"measurement": "Ki", "setting": "[1]", "result": 2.35, "unit": "µM"}]}
{"smiles": "COc1cc(C=C2C(=O)N(c3ccccc3)N=C2C)cc(Cl)c1OCCOc1cc(C)ccc1C", "values": [{"measurement": "Ki", "setting": "[1]", "result": 17.7, "unit": "µM"}]}
{"smiles": "COC(=O)COc1ccc(C=C2C(=O)N(c3ccccc3)N=C2C)cc1", "values": [{"measurement": "Ki", "setting": "[1]", "result": 164, "unit": "µM"}]}
{"smiles": "COc1cc(C=C2C(=O)NN(c3cccc(Br)c3)C2=O)cc(Br)c1OC(C)=O", "values": [{"measurement": "Ki", "setting": "[2]", "result": 5.04, "unit": "µM"}, {"measurement": "Ki", "setting": "[1]", "result": 0.99, "unit": "µM"}]}
{"smiles": "CCOc1cc(C=C2C(=O)N(c3ccccc3)N=C2C)c(Br)cc1OCC(=O)OC", "values": [{"measurement": "Ki", "setting": "[2]", "result": 33.8, "unit": "µM"}, {"measurement": "Ki", "setting": "[1]", "result": 36.5, "unit": "µM"}]}
{"smiles": "CCOC(=O)COc1ccc(C=C2C(=O)N(c3cccc(C(F)(F)F)c3)N=C2C)cc1OCC", "values": [{"measurement": "Ki", "setting": "[1]", "result": 48.9, "unit": "µM"}]}
{"smiles": "CCOc1cc(C=C2C(=O)N(c3ccc(Cl)cc3)N=C2C)cc(Cl)c1O", "values": [{"measurement": "Ki", "setting": "[2]", "result": 43.5, "unit": "µM"}, {"measurement": "Ki", "setting": "[1]", "result": 117, "unit": "µM"}]}
{"smiles": "COc1cc(C=C2C(=O)NN(c3cccc(Cl)c3)C2=O)cc(Cl)c1OC", "values": [{"measurement": "sensitivity of mutant in blocking the interaction with p53 peptide", "setting": "[3]", "result": "Reduced sensitivity"}, {"measurement": "Ki", "setting": "[2]", "result": 1.34, "unit": "µM"}, {"measurement": "Ki", "setting": "[1]", "result": 1.76, "unit": "µM"}]}
{"smiles": "CCOC(=O)COc1c(Br)cc(C=C2C(=O)N(c3ccccc3)N=C2C)cc1OCC", "values": [{"measurement": "Ki", "setting": "[2]", "result": 2.57, "unit": "µM"}, {"measurement": "Ki", "setting": "[1]", "result": 5.25, "unit": "µM"}]}
{"smiles": "CCOc1cc(C=C2C(=O)N(c3cccc(Cl)c3)N=C2C)cc(Cl)c1OCC", "values": [{"measurement": "Ki", "setting": "[1]", "result": 2.46, "unit": "µM"}]}
